The series deals with the molecule itself. Briefly: cryo-EM structure; helical reconstruction (RELION 4.0) of fibrils of recombinant tau fragments assembled at 10 mg/ml in phosphate buffer pH 7.4, 10 mM DTT, 200 mM MgCl2 or NaCl, 37°C, 200 rpm, 48 hours.

B1: Tau (287 to 391) (domain or fragment, human, UniProt P10636-8 287-391, looked up)
chain: VQSKCGSKDNIKHVPGGGSVQIVYKPVDLSKVTSKCGSLGNIHHKPGGGQVEVKSEKLDFKDRVQSKIGSLDNITHVPGGGNKKIETHKLTFRENAKAKTDHGAE
notes: Fibrils made in phosphate buffer pH 7.4, 10 mM DTT, 200 mM MgCl2; no tag is named; source: E. coli BL21(DE3), purified (SP cation exchange, Superdex 75 SEC); fibrillised in vitro
Consider B1, for which the binding result is listed as “binds”.

B2: Tau (266 to 391) (domain or fragment, human, UniProt P10636-8 266-391, looked up)
chain: LKHQPGGGKVQIINKKLDLSNVQSKCGSKDNIKHVPGGGSVQIVYKPVDLSKVTSKCGSLGNIHHKPGGGQVEVKSEKLDFKDRVQSKIGSLDNITHVPGGGNKKIETHKLTFRENAKAKTDHGAE
notes: Fibrils made in phosphate buffer pH 7.4, 10 mM DTT, 200 mM NaCl; no tag is named; source: E. coli BL21(DE3), purified (SP cation exchange, Superdex 75 SEC); fibrillised in vitro
In the case of B2, the binding result is reported as “binds”.

Source of the values: article PMC11753436, “Functional classification of tauopathy strains reveals the role of protofilament core residues” (Science Advances, 2025).
